What all share (assay type): ADME, organism-based
Common to all, as to conditions: in vivo

Data set [1] is described as follows: AUC (0 to infinity) in Wistar rat at 2 mg/kg, iv by LC-MS/MS analysis. Also noted: dose 2 mg/kg, route intravenous, time infinity.
Data set [2] is described as follows: Clearance in Wistar rat at 2 mg/kg, iv by LC-MS/MS analysis.
Data set [3] is described as follows: Oral bioavailability in Wistar rat at 10 mg/kg by LC-MS/MS analysis.
Data set [4] can be described thus: Oral bioavailability in Kunming mouse at 10 mg/kg by LC-MS/MS analysis.

Structures are written as SMILES.

For `Cc1cc(/C=C/C#N)cc(C)c1Oc1nc(Nc2ccc(C#N)c(F)c2)nc2ccsc12`, the AUC in data set [1] was found to be 88400 ng·h/mL. This compound also had a CL in data set [2] of 3.83 mL/min/kg. In addition, the F in data set [3] was 6.31%; in data set [4], 5.38%.

Values taken from ChEMBL document CHEMBL4376885 (J Med Chem, 2020).
